IC50 data for 3 compounds are collected here from ChEMBL document CHEMBL1773067.

Amino acid sequences for entries named in this document (tags omitted). A change or cut given only in a name is not applied to a line headed by its entry.
UniProt Q9Y2R2, whole entry: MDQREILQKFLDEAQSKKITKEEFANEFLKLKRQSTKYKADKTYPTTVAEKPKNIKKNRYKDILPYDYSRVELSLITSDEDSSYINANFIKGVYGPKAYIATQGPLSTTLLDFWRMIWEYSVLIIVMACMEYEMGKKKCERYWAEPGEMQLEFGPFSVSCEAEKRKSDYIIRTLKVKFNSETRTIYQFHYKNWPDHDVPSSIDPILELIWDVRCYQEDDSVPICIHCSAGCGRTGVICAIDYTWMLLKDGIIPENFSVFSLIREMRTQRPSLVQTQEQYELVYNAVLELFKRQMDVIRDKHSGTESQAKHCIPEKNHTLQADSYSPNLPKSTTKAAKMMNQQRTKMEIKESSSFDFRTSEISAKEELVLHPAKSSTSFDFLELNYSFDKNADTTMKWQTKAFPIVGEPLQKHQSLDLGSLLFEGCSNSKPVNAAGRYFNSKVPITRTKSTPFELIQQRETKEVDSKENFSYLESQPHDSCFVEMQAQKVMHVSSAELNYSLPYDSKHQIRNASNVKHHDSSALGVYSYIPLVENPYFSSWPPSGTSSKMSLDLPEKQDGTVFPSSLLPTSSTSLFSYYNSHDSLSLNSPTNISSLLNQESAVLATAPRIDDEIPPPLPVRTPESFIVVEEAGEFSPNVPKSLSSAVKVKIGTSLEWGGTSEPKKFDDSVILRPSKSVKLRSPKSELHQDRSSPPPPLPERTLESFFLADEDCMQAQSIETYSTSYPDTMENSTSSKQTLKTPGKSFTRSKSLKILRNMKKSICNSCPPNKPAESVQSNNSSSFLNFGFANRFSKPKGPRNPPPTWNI
UniProt P18433: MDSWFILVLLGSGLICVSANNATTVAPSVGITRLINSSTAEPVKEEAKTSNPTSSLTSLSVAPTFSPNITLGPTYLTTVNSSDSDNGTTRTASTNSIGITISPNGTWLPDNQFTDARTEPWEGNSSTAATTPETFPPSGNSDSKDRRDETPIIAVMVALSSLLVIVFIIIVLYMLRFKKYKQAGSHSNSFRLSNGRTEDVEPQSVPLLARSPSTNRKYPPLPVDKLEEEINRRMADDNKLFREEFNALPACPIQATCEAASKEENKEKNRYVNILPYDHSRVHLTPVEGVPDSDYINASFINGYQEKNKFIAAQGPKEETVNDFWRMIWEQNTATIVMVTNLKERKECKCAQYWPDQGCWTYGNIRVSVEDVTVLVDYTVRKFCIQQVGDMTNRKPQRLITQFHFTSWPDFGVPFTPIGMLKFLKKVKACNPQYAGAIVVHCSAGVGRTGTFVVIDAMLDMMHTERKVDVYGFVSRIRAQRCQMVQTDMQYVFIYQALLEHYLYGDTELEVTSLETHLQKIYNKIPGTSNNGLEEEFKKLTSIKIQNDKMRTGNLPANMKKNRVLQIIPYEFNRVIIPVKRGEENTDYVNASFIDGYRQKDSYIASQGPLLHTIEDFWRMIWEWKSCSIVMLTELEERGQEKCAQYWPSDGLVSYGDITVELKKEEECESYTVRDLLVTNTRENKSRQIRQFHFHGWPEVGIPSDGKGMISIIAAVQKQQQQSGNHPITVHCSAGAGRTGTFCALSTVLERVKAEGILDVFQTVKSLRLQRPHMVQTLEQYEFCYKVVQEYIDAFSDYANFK
UniProt Q06124, whole entry: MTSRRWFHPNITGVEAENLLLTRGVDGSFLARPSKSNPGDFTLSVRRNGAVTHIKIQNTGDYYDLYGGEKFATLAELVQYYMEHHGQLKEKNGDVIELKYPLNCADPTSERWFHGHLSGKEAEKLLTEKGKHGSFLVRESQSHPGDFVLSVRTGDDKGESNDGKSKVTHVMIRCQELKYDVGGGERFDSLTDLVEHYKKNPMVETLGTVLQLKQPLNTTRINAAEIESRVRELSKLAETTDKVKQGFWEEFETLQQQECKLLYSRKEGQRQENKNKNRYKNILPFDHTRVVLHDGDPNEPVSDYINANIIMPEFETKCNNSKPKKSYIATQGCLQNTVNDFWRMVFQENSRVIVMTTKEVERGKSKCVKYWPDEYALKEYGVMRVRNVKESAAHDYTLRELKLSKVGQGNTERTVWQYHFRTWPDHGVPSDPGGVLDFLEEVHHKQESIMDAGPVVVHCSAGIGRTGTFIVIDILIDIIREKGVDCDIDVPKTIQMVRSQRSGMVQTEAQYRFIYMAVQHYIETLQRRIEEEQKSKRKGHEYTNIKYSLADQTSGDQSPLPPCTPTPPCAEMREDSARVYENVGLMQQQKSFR

The structures appear in SMILES notation.

Assay [1] deals with Tyrosine-protein phosphatase non-receptor type 22 (Homo sapiens, UniProt Q9Y2R2). The experiment in a line: Inhibition of human Lyp expressed in Escherichia coli after 5 mins by microplate spectrophotometer analysis.
In assay [2] the target is T1, Protein tyrosine phosphatase type IVA 1 (Homo sapiens, UniProt Q93096).
T1 sequence (Q93096 whole entry): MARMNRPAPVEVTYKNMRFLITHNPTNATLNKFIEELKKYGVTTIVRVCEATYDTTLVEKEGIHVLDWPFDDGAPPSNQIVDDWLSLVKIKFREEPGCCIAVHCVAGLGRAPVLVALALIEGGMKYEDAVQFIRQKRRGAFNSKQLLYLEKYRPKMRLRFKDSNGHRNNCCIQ
The experiment in a line: Inhibition of human PRL1 expressed in Escherichia coli after 5 mins by microplate spectrophotometer analysis.

The target of assay [3] is Receptor-type tyrosine-protein phosphatase alpha (Homo sapiens, UniProt P18433). The experiment in a line: Inhibition of human PTPalpha expressed in Escherichia coli after 5 mins by microplate spectrophotometer analysis.
In assay [4] the target is Tyrosine-protein phosphatase non-receptor type 11 (Homo sapiens, UniProt Q06124). The assay is described as follows: Inhibition of human SHP2 expressed in Escherichia coli after 5 mins by microplate spectrophotometer analysis.

As for `CCCCc1ccc(NS(=O)(=O)c2ccc3c4c(cccc24)C(=O)N3)cc1`, the IC50 (commonly the concentration that gives 50% inhibition) in assay [1] was > 50 µM.

With `COc1ccc(N2CCN(C(c3cccs3)C(C)NC(=O)C(=O)NCc3ccco3)CC2)cc1` (stereo unspecified), the IC50 in assay [2], in assay [3] and in assay [1] was > 50 µM throughout.

`CC(NC(=O)C(=O)NCc1cccnc1)C(c1cccs1)N1CCN(c2ccc(F)cc2)CC1` (stereo unspecified): the IC50 in assay [3] and in assay [4] was > 50 µM each time.
